Assay results: PubChem BioAssay (NCI)
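Each compound was tested at five concentrations against cells in 96-well plates for 48 hours. Here, GI50 denotes the concentration required for 50% inhibition of growth. TGI: concentration producing complete growth inhibition.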

Columns and labels:
Experiment in all cases: DTP human tumour cell line panel, 48 h
[1] = test system: NCI-H322M lung
[2] = test system: MCF7 breast
[3] = test system: RPMI-8226 leukemia
[4] = test system: NCI-H460 lung
[5] = test system: HCT-15 colon
[6] = test system: K-562 leukemia
[7] = test system: OVCAR-5 ovarian
[8] = test system: HCT-116 colon
[9] = test system: A549 NSCLC
[10] = test system: SK-OV-3 ovarian
[11] = test system: IGROV1 ovarian
[12] = test system: MOLT-4 leukemia
[13] = test system: TK-10 renal
[14] = test system: OVCAR-4 ovarian
[15] = test system: MDA-MB-435
[16] = test system: BT-549 breast
[17] = test system: HL-60(TB) leukemia
[18] = test system: OVCAR-3 ovarian
[19] = test system: UACC-62 melanoma
[20] = test system: SF-539 CNS
[21] = test system: HOP-62 NSCLC
[22] = test system: SF-268 CNS
[23] = test system: SNB-19 CNS
[24] = test system: U251 CNS
[25] = test system: NCI-H226 lung
[26] = test system: COLO 205 colon
[27] = test system: SK-MEL-28 melanoma
[28] = test system: MDA-MB-231 breast
[29] = test system: ACHN renal
[30] = test system: KM12 colon
[31] = test system: 786-0 renal
[32] = test system: SK-MEL-2 melanoma
[33] = test system: EKVX NSCLC
[34] = test system: SW-620 colon
[35] = test system: HT29 colon
[36] = test system: NCI-H23 lung
[37] = test system: UO-31 renal
[38] = test system: OVCAR-8 ovarian
[39] = test system: NCI-H522 lung
[40] = test system: NCI/ADR-RES ovarian
[41] = test system: HOP-92 NSCLC
[42] = test system: RXF 393 renal
[43] = test system: MALME-3M melanoma
[44] = test system: M14 melanoma
[45] = test system: CAKI-1 renal
[46] = test system: HS 578T breast
[47] = test system: PC-3 prostate
[48] = test system: SNB-75 CNS
[49] = test system: HCC-2998 colon
[50] = test system: CCRF-CEM leukemia
[51] = test system: UACC-257 melanoma
[52] = test system: SR leukemia
[53] = test system: SF-295 CNS
[54] = test system: SK-MEL-5 melanoma

SMILES: O=[N+]([O-])C(F)(COC(=S)OCC(F)([N+](=O)[O-])[N+](=O)[O-])[N+](=O)[O-]
- GI50 [1]: 21.1 µM
- TGI [1]: 54.5 µM
- GI50 [2]: 12.1 µM
- TGI [2]: 30.4 µM
- GI50 [3]: 2.42 µM
- TGI [3]: 34.1 µM
- GI50 [4]: 13.1 µM
- TGI [4]: 28.6 µM
- GI50 [5]: 11.1 µM
- TGI [5]: 26.6 µM
- GI50 [6]: 4.96 µM
- TGI [6]: > 100 µM
- GI50 [7]: 20.1 µM
- TGI [7]: 36.7 µM
- GI50 [8]: 6.62 µM
- TGI [8]: 19.6 µM
- GI50 [9]: 15 µM
- TGI [9]: 33.9 µM
- GI50 [10]: 29.1 µM
- TGI [10]: 63.2 µM
- GI50 [11]: 13 µM
- TGI [11]: 29.2 µM
- GI50 [12]: 6.59 µM
- TGI [12]: 26.5 µM
- GI50 [13]: 14.3 µM
- TGI [13]: 28.9 µM
- GI50 [14]: 12.1 µM
- TGI [14]: 24.4 µM
- GI50 [15]: 4.94 µM
- TGI [15]: 21.9 µM
- GI50 [16]: 19.4 µM
- TGI [16]: 33.6 µM
- GI50 [17]: 2.73 µM
- TGI [17]: 12.1 µM
- GI50 [18]: 15.3 µM
- TGI [18]: 28.9 µM
- GI50 [19]: 13.2 µM
- TGI [19]: 27.1 µM
- GI50 [20]: 15.7 µM
- TGI [20]: 30.2 µM
- GI50 [21]: 16 µM
- TGI [21]: 31 µM
- GI50 [22]: 16.2 µM
- TGI [22]: 31 µM
- GI50 [23]: 19.8 µM
- TGI [23]: 50 µM
- GI50 [24]: 16.8 µM
- TGI [24]: 34.9 µM
- GI50 [25]: 17.8 µM
- TGI [25]: 34.5 µM
- GI50 [26]: 4.71 µM
- TGI [26]: 16 µM
- GI50 [27]: 17.2 µM
- TGI [27]: 41.3 µM
- GI50 [28]: 14.3 µM
- TGI [28]: 27.4 µM
- GI50 [29]: 11.8 µM
- TGI [29]: 25.1 µM
- GI50 [30]: 14.8 µM
- TGI [30]: 29.2 µM
- GI50 [31]: 15.4 µM
- TGI [31]: 30 µM
- GI50 [32]: 15.9 µM
- TGI [32]: 30.9 µM
- GI50 [33]: 17.2 µM
- TGI [33]: 31.5 µM
- GI50 [34]: 5.6 µM
- TGI [34]: 28.2 µM
- GI50 [35]: 15.1 µM
- TGI [35]: 47.2 µM
- GI50 [36]: 16.8 µM
- TGI [36]: 33.8 µM
- GI50 [37]: 14.6 µM
- TGI [37]: 27.8 µM
- GI50 [38]: 15.3 µM
- TGI [38]: 32 µM
- GI50 [39]: 3.12 µM
- TGI [39]: 10.6 µM
- GI50 [40]: 16.9 µM
- TGI [40]: 37.6 µM
- GI50 [41]: 12.6 µM
- TGI [41]: 29.2 µM
- GI50 [42]: 12.8 µM
- TGI [42]: 25.7 µM
- GI50 [43]: 8.34 µM
- TGI [43]: 22 µM
- GI50 [44]: 12.2 µM
- TGI [44]: 27 µM
- GI50 [45]: 4.57 µM
- TGI [45]: 15.2 µM
- GI50 [46]: 15.2 µM
- TGI [46]: 33.2 µM
- GI50 [47]: 13.3 µM
- TGI [47]: 26.4 µM
- TGI [48]: 25 µM
- GI50 [49]: 15 µM
- TGI [49]: 28.2 µM
- GI50 [50]: 4 µM
- TGI [50]: 22.5 µM
- GI50 [51]: 16 µM
- TGI [51]: 34.9 µM
- GI50 [52]: 2.82 µM
- TGI [52]: 11.5 µM
- GI50 [53]: 22.3 µM
- TGI [53]: 44.6 µM
- GI50 [54]: 6.49 µM
- TGI [54]: 19.7 µM
